This is an account of results in ChEMBL document CHEMBL4364256, “Design, synthesis and biological evaluation of antimicrobial diarylimine and -amine compounds targeting the interaction between the bacterial NusB and NusE proteins” (Eur J Med Chem, 2019).

Experiment [1] relates to Staphylococcus aureus. The following applies: ATCC 25923.
Experiment [2] deals with Staphylococcus aureus. The following applies: W45 ST59.
For experiment [3], the system named is Staphylococcus aureus. The following applies: USA300 ST8.
Experiment [4] deals with Enterobacter cloacae subsp. cloacae. The following applies: ATCC 13047.
The test system of experiment [5] is Staphylococcus aureus. The following applies: W46 ST59.
The subject of experiment [6] is Staphylococcus aureus. The following applies: W48 ST217.
Experiment [7] concerns Staphylococcus aureus. The following applies: ATCC 29213.

Take GENTAMICIN: the MIC against Staphylococcus aureus [1] is 0.5 to 1 µg/mL; in the experiment with Staphylococcus aureus [2], 0.5 µg/mL; against Staphylococcus aureus [3], 0.5 µg/mL; in experiment [4] it was 0.5 µg/mL; in the experiment with Staphylococcus aureus [5], 0.5 µg/mL; in the experiment on Staphylococcus aureus [6], 0.5 µg/mL. The minimum inhibitory concentration (MIC) in the experiment with Staphylococcus aureus [7] lay in the range of 0.5 to 1 µg/mL.

One may read the MIC as the smallest concentration in the dilution series that meets the test's criterion for growth inhibition. Low readings indicate inhibition by little substance, high ones a need for much substance.
